# Results: US20260384438A1, “PYRROLOPYRIMIDINE CARBOXAMIDES” (published 2026)
# Protein sequences, listed by entry. Tags and fused reporters are not part of them. Residues count along the entry.
# UniProt P33261, whole entry: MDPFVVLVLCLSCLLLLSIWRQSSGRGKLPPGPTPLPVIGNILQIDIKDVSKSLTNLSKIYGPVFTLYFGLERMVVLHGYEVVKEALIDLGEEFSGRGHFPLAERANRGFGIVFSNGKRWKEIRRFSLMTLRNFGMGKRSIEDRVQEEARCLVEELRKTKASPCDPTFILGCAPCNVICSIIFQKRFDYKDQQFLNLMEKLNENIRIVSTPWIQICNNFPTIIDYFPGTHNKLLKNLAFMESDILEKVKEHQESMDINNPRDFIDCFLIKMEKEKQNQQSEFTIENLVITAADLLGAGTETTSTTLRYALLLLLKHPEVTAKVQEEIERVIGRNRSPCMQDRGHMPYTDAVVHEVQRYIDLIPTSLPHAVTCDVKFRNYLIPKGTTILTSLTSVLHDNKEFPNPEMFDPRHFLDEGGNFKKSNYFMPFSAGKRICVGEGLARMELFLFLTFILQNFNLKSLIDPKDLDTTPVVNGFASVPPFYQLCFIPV
# UniProt P10635, whole entry: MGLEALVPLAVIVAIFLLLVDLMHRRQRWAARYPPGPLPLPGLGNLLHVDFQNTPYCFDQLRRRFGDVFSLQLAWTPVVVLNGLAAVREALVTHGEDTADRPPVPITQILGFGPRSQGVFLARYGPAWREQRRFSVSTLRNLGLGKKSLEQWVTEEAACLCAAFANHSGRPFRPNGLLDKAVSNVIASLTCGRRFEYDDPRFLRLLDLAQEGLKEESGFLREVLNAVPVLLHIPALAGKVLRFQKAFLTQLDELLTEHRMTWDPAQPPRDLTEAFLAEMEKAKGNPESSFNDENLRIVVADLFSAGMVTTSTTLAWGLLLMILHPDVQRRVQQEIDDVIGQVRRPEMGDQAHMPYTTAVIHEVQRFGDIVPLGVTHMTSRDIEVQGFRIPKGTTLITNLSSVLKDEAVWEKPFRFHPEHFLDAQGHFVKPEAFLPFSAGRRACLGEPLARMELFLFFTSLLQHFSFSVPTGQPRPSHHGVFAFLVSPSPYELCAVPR
# UniProt P05177, whole entry: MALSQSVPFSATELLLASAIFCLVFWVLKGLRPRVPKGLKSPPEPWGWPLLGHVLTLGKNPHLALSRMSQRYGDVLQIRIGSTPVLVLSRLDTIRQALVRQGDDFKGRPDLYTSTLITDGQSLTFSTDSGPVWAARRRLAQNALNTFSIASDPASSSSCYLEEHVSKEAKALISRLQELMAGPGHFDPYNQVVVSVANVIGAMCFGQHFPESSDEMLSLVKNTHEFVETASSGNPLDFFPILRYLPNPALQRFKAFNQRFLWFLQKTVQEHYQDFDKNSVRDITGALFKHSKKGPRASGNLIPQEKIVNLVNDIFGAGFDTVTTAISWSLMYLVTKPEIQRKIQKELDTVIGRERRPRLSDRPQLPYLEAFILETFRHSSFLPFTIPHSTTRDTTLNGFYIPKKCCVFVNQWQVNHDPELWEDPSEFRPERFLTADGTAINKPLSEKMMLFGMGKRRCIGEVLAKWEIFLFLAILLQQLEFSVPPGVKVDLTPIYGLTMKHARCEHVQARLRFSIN
# UniProt O75469, whole entry: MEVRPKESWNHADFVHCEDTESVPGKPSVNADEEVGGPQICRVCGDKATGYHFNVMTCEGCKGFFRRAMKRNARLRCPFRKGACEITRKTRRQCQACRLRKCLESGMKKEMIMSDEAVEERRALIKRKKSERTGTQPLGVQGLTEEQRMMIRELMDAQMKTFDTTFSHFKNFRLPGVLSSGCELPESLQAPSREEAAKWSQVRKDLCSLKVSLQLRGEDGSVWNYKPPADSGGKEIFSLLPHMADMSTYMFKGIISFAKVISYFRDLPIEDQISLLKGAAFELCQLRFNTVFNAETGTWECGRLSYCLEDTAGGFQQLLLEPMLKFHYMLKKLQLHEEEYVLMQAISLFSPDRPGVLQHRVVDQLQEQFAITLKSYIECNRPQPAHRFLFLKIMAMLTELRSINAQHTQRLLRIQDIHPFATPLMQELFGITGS
# UniProt P54753, 34-998 limits assumed: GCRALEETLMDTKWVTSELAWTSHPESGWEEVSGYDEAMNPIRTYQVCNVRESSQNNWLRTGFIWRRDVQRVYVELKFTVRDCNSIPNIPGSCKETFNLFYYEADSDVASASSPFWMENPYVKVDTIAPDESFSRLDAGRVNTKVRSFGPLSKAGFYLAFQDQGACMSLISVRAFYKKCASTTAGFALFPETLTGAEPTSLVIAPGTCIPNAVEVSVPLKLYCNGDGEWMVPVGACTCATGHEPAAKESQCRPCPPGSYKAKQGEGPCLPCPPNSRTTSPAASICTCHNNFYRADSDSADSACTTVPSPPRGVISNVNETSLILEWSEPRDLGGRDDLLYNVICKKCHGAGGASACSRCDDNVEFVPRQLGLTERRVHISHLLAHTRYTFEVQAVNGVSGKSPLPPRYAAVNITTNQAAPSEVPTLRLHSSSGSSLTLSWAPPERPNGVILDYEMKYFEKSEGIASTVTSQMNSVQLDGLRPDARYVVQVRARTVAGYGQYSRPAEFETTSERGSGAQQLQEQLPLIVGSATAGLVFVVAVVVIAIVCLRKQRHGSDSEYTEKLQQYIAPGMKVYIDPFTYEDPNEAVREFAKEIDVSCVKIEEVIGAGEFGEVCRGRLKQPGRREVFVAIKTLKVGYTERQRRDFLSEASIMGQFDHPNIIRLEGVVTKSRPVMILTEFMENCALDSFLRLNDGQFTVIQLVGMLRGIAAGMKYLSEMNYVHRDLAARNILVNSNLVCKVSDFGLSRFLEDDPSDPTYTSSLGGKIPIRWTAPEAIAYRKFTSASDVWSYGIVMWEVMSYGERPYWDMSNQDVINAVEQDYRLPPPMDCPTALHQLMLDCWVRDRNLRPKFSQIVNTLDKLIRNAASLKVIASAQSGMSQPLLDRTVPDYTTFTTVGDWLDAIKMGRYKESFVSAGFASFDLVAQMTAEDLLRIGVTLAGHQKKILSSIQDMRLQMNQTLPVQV
# UniProt P30291, whole entry: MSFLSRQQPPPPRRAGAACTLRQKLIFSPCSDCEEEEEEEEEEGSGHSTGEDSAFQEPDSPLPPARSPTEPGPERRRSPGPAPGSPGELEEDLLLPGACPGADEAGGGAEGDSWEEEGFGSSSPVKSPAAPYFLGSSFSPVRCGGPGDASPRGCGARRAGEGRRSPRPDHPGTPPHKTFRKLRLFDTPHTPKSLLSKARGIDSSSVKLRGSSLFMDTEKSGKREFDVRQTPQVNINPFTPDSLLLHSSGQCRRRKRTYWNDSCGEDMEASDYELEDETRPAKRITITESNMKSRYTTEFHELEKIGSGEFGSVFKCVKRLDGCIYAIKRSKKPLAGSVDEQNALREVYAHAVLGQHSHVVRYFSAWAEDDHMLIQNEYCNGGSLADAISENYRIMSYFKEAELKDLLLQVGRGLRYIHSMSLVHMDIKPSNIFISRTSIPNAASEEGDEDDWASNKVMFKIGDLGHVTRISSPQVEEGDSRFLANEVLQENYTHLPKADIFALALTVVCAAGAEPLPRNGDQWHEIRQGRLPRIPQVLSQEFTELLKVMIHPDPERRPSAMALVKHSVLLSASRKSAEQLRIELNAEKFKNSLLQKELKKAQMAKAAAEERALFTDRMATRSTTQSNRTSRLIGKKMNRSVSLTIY
# UniProt P11712, whole entry: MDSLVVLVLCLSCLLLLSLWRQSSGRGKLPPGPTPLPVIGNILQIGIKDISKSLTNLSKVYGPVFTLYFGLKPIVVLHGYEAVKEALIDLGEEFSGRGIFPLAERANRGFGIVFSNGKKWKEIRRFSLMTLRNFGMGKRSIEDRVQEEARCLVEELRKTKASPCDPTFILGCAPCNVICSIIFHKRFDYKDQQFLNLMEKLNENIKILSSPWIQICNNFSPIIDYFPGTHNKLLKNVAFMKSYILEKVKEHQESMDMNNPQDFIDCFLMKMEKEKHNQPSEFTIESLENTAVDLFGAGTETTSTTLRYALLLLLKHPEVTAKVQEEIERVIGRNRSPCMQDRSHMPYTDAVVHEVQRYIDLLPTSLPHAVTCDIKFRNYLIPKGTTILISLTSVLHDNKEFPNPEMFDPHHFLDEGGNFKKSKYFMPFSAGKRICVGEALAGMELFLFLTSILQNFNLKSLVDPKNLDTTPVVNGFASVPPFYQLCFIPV
# Experiments:
# SW620 tumors = assay: Pharmacodynamic effect in human colorectal SW620 xenograft model (athymic nude mice), immunoblotting
# OVCAR3 cells = assay: Cellular proliferation (Hoechst staining), OVCAR3; conditions: read-out: OVCAR3 GI50; CCNE1-amplified, 4 days
# CYP2C19 [1] = target: T1, CYP2C19 (Homo sapiens, UniProt P33261); assay: CYP inhibition, CYP2C19; conditions: read-out: CYP2C19 inhibition IC50; HLM, S-mepheytoin 35 μM
# CYP3A [2] = assay: CYP inhibition, CYP3A; conditions: read-out: CYP3A inhibition IC50; HLM, midazolam 3 μM
# SKOV3 cells = assay: Cellular proliferation (Hoechst staining), SKOV3; conditions: read-out: SKOV3 GI50; CCNE1-nonamplified, 4 days
# PKMYT1 KO SKOV3 cells = assay: Immunoblotting in PKMYT1 KO SKOV3 cells; conditions: PKMYT1 KO SKOV3, 24 h
# CYP3A [3] = assay: CYP time dependent inhibition, CYP3A; conditions: 10 μM, 30 min preincubation, HLM
# CYP2D6 [4] = target: T2, CYP2D6 (Homo sapiens, UniProt P10635); assay: CYP time dependent inhibition, CYP2D6; conditions: 10 μM, 30 min preincubation, HLM
# CYP1A2 [5] = target: T3, CYP1A2 (Homo sapiens, UniProt P05177); assay: CYP time dependent inhibition, CYP1A2; conditions: 10 μM, 30 min preincubation, HLM
# [6] = target: Pregnane X Receptor (PXR) (Homo sapiens, UniProt O75469); assay: CYP induction: PXR activation in DPX2 cells; conditions: 0.1-30 μM, 24 h
# CYP2D6 [7] = target: T2, CYP2D6; assay: CYP inhibition, CYP2D6; conditions: read-out: CYP2D6 inhibition IC50; HLM, bufuralol 5 μM
# EPHB3 = EPHB3 (Homo sapiens, UniProt P54753); assay: NanoBRET target engagement in HEK293T cells, EPHB3; conditions: read-out: EPHB3 INHIBITION IC50, 2 h
# [8] = tested on: uterine cancer and breast cancer cell line models; assay: Replication fork velocity by DNA combing analysis
# Caco-2 cell permeability = conditions: 10 μM, 2 h, 37 °C
# [9] = tested on: human bone marrow derived CD34+ hematopoietic stem and progenitor cells; assay: In vitro hematopoietic stem and progenitor cell assay (bone marrow toxicity); conditions: read-out: MEAN IC50 VALUE IN PRIMARY HSPC (± STANDARD DEVIATION); CD34+ HSPC induced to erythroid lineage, 5 days
# WEE1 = WEE1 (Homo sapiens, UniProt P30291); assay: NanoBRET target engagement in HEK293T cells, WEE1; conditions: read-out: WEE1 INHIBITION IC50, 2 h
# CYP2C9 [10] = target: T4, CYP2C9 (Homo sapiens, UniProt P11712); assay: CYP time dependent inhibition, CYP2C9; conditions: 10 μM, 30 min preincubation, HLM
# [11] = Metabolic stability in human liver microsomes (HLM); conditions: human liver microsomes 1 mg/mL, 1 μM
# CYP1A2 [12] = target: T3, CYP1A2; assay: CYP inhibition, CYP1A2; conditions: read-out: CYP1A2 inhibition IC50; HLM, phenacetin 30 μM
# CYP2C9 [13] = target: T4, CYP2C9; assay: CYP inhibition, CYP2C9; conditions: read-out: CYP2C9 inhibition IC50; HLM, diclofenac 10 μM
# CYP2C19 [14] = target: T1, CYP2C19; assay: CYP time dependent inhibition, CYP2C19; conditions: 10 μM, 30 min preincubation, HLM
# [15] = Metabolic stability in human hepatocytes in suspension (hHEP); conditions: 1 μM
smiles,measurement,setting,value
CCc1c2c(nc3ccc(OC(=O)N4CCC(N5CCCCC5)CC4)cc13)-c1cc3c(c(=O)n1C2)COC(=O)[C@]3(O)CC,DNA damage formation (gH2AX),SW620 tumors; irinotecan hydrochloride 50 mg/kg i.p.,DNA damage formation
same,mitotic population (phospho-histone H3 Ser10),SW620 tumors; irinotecan hydrochloride monotherapy 50 mg/kg i.p.,reduced mitotic population
"Cc1ncc2c(C(N)=O)c(N)n(-c3c(C)ccc(O)c3C)c2n1 (single isomer, unassigned)",GI50,OVCAR3 cells,1.31 µM
same,IC50,CYP2C19 [1],> 30 µM
same,IC50,CYP3A [2],> 30 µM
same,GI50,SKOV3 cells,11.8 µM
same,phospho-CDK1 Thr14 expression,PKMYT1 KO SKOV3 cells,could not be further reduced
same,"% time dependent inhibition (TDI), CYP3A",CYP3A [3],less than 20%
same,"% time dependent inhibition (TDI), CYP2D6",CYP2D6 [4],less than 20%
same,"% time dependent inhibition (TDI), CYP1A2",CYP1A2 [5],less than 20%
same,PXR induction,[6],No induction of PXR
same,IC50,CYP2D6 [7],> 30 µM
same,IC50,EPHB3,1.67 µM
same,sensitivity versus basal replication stress (median replication fork velocities),[8],cell line models with low basal levels of replication stress were more resistant to PKMYT1 inhibition
same,Caco-2 A-B Papp,Caco-2 cell permeability,5.045 1E−6.cm/s
same,IC50,[9],13.9 µM
same,IC50,WEE1,> 8.94 µM
same,"% time dependent inhibition (TDI), CYP2C9",CYP2C9 [10],less than 20%
same,HLM (CLint),[11],<3.336 µL/min/mg
same,IC50,CYP1A2 [12],> 30 µM
same,IC50,CYP2C9 [13],> 30 µM
same,"% time dependent inhibition (TDI), CYP2C19",CYP2C19 [14],less than 20%
same,Hhep (CLint),[15],<1.000 μl/min/1E6
